For two molecules, IC50 results are on record in patent US20240400561A1, “NOVEL SUBSTITUTED SULFONYLUREA COMPOUNDS AS INHIBITORS OF INTERLEUKIN-1 ACTIVITY” (Viva Star Biosciences (Suzhou) Co., Ltd., priority 2021, published 2024).

Protein sequences, listed by entry. Tags and fused reporters are not part of them.
UniProt Q96P20, whole entry: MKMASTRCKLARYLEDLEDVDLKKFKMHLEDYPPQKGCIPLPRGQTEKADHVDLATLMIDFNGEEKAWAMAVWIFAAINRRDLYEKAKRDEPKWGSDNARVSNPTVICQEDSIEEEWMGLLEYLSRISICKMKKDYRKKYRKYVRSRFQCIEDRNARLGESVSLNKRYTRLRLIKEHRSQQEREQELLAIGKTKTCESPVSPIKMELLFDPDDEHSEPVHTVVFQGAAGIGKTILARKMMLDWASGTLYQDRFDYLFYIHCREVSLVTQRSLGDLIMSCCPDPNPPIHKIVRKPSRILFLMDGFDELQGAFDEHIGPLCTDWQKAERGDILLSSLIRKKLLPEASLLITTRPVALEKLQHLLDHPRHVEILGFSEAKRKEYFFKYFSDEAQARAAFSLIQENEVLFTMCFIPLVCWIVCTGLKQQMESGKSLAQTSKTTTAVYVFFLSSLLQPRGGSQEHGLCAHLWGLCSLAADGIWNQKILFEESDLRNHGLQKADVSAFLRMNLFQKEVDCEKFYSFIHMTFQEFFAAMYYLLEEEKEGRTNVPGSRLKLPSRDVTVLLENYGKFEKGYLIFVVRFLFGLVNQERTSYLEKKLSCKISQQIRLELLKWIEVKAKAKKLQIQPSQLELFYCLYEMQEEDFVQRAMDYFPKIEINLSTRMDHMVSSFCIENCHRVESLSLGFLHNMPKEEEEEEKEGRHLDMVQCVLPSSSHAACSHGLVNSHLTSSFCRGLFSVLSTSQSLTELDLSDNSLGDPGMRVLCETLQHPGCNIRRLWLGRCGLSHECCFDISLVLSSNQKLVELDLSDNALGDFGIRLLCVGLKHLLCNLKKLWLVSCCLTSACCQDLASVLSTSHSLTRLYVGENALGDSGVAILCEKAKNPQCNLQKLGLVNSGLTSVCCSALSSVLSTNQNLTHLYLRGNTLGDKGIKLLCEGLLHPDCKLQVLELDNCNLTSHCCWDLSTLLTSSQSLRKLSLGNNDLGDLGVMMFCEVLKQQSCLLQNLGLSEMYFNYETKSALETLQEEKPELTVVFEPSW

This assay concerns the target NLRP3 (Homo sapiens, UniProt Q96P20). The assay can be described thus: THP-1 cell assay (LPS priming, nigericin), IL1β release by HTRF; called pyroptosis assay, THP IC50. The following applies: read-out: THP IC50; NLRP3 inhibitory activity; THP-1 cells, 1.0 ug/mL LPS, compound 3 hrs, nigericin 5 uM 1 hr, IL1β in supernatant. The method, then:
The following method was used for compound screening. • 1. Seed THP-1 cells (5.56*10^5 cells/mL) containing 1.0 ug/mL LPS (SIGMA, L6529) in 45 uL RPMI 1640 medium (without FBS) into 384-well plate (Thermo Scientific, 164688). • 2. Add 5 uL compound (10 doses starting from 5 uM, 1:3 dilution) or vehicle (0.05% DMSO in medium) to the appropriate wells. • 3. Centrifuge the plates at 1000 rpm for 2 mins and incubate for 3 hrs at 37° C., 5% CO2. • 4. Add 5 uL nigericin (MEC, HY-100381) (final conc. 5 uM) to sample wells and positive control wells; add 5 uL RPMI 1640 medium to negative control wells. • 5. Centrifuge plates at 1000 rpm for 2 mins and incubate for 1 hr at 37° C., 5% CO2. • 6. At the end of the incubation period, centrifuge plates at 1000 rpm for 6 mins and transfer 8 uL supernatant into 384-well assay plates (PerkinElmer, 6008280). • 7. Add 8 ul RPMI 1640 medium into each well and spin down for 10 secs. • 8. Prepare the standard solutions and pre-mixed IL1β antibody solution of Human […] kits (PerkinElmer, 62HIL1BPEH) according to the instruction. • 9. Add 16 uL standard solutions into clear wells of 384-well assay plates. • 10. […] Seal the plates, spin down for 10 secs, incubation for overnight at RT and read on an HTRF® compatible reader (BMG LABTECH, PHERAstar FS). • 12. The concentrations of IL1β for treated wells are calculated by the standard curve. • 13. […]
In general terms: Time-resolved FRET reads energy transfer from a long-lived donor to a nearby acceptor.

As to `CC(C)(O)c1csc(S(=O)(=O)NC(=O)Nc2c(-c3ccc4cncn4c3)ccc3c2CCC3)c1`, the IC50 (as a rule, the concentration that inhibits the measured activity by half) fell in the range of 30 to 300 nM.

Turning to `Cc1cc2c(c(NC(=O)NS(=O)(=O)c3cnn(CC4CC4)c3)c1-c1ccn3cncc3c1)CCC2`, the IC50 was less than 30 nM.
